# Measurements as given in patent publication US20210009542A1 (Calico Life Sciences LLC, priority 2018, published 2021).
# The chains behind the UniProt entries cited, without tags or fusion partners. A line that says so, or that is headed by a name, gives the form on record, which may keep a tag or linker. Residues count along the entry.
# UniProt P18031, 1-321 with tags or gaps: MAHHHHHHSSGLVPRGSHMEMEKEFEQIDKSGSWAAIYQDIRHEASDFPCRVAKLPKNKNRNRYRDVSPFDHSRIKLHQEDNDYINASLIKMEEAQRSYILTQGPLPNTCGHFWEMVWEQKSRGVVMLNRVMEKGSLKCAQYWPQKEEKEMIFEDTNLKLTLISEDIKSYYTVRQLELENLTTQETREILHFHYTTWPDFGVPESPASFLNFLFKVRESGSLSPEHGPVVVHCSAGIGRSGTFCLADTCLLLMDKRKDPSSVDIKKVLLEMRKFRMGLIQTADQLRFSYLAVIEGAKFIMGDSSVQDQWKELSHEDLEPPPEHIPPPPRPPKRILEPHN
# UniProt P17706, 1-387 with tags or gaps isoform 2: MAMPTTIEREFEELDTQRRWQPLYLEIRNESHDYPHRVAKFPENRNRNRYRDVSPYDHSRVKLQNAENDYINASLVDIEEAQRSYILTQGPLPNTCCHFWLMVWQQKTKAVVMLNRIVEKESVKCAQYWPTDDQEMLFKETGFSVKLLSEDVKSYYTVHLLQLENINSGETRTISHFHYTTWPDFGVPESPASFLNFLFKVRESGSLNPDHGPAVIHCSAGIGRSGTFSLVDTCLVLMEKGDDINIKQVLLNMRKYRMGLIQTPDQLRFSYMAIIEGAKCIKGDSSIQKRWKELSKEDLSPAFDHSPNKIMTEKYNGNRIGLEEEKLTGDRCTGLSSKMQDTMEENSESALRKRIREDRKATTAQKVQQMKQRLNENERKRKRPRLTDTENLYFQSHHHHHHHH
# Experiments:
# [1] = test system: B16F10 mouse melanoma cells; assay: B16F10 IFNγ-induced cellular growth inhibition assay; conditions: 33 μM compound; for % B16F10 growth inhibition (+0.5 ng/mL IFNγ) @ 33 μM: relative to DMSO control
# [2] = molecular target: His tagged full-length PTP1B protein (Homo sapiens, UniProt P18031); assay: Mobility shift assay (MSA) for potency of PTP1B inhibitors; format: biochemical; conditions: read-out: PTP1B MSA IC50
# [3] = molecular target: His tagged PTPN2 (TC45) protein (Homo sapiens, UniProt P17706); assay: Mobility shift assay (MSA) for potency of PTPN2 inhibitors; conditions: read-out: PTPN2 MSA IC50
SMILES,% B16F10 growth inhibition (+0.5 ng/mL IFNγ) @ 33 μM [1],% B16F10 growth inhibition (no IFNγ) @ 33 μM [1],IC50 [2] [nM],IC50 [3] [nM]
O=C1CN(c2c(O)cc3ccc(CC4CCN(S(=O)(=O)C5CC5)CC4)cc3c2F)S(=O)(=O)N1,C (a percent growth inhibition of 25-59%),D (a percent growth inhibition of <25%),10 to 100,1 to 10
N#CC1(COc2ccc3cc(O)c(N4CC(=O)NS4(=O)=O)c(F)c3c2)CC1,,,> 100,1 to 10
CC(C)(O)CCCc1ccc2cc(O)c(N3CC(=O)NS3(=O)=O)c(F)c2c1,B (a percent growth inhibition of 60-90%),D (a percent growth inhibition of <25%),1 to 10,< 1
